The text below walks through data of patent US11213590B2, “SSTR-targeted conjugates and particles and formulations thereof” (priority 2016, dated 2022).

Amino acid sequences for entries named in this document (tags omitted). A change or cut given only in a name is not applied to a line headed by its entry.
UniProt Q12809: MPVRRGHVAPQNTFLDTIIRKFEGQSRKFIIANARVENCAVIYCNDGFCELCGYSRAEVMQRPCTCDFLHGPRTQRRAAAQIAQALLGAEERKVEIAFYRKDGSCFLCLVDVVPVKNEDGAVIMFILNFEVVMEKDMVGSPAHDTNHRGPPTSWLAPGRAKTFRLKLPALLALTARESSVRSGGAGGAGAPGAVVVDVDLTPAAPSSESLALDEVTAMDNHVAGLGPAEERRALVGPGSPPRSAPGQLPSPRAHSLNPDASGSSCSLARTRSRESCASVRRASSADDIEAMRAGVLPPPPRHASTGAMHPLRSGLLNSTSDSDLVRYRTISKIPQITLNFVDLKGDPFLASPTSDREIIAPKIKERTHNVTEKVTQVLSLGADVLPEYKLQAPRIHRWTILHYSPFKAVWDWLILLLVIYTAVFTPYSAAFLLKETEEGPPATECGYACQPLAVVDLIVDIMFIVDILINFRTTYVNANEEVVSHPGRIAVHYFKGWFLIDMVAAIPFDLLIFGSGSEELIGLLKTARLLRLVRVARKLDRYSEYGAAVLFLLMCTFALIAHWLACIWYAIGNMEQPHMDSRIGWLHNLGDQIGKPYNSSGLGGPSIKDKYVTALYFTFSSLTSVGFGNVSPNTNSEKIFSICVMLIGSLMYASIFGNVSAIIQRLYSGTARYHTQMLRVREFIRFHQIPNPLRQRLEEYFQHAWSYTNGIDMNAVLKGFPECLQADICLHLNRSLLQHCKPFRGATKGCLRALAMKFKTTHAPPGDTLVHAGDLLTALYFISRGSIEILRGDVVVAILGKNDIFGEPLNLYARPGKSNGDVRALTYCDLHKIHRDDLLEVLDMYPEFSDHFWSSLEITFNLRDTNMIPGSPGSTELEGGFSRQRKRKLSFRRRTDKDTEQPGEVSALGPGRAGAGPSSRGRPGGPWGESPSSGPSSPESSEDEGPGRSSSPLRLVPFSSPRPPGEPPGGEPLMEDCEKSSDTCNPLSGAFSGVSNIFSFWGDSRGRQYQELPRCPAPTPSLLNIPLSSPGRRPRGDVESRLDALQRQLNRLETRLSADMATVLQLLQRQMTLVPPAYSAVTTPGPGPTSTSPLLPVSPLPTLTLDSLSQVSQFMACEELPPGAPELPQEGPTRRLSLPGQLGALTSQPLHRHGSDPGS

The target of this data set is human Ether-á-go-go-Related Gene (hERG) ion channel (Homo sapiens, UniProt Q12809). The data set can be described thus: hERG ion channel inhibition, IonWorks Quattro patch clamp. The format is cell-based. The conditions noted are these: up to 10 μM. The method, then: The purpose of this study was to evaluate the potential of Conjugate 57 to prolong the QT interval via modulation of the ion channel, human Ether-á-go-go Related Gene (hERG). The potential inhibition of the ion channel activity by Conjugate 57 was tested using an IonWorks Quattro electrophysiological platform, which is an automated high-throughput patch clamp system. Conjugate 57 was tested at eight different concentrations, starting at a high concentration of 10 μM and a low concentration of 0.005 μM with a minimum of five replicates for each concentration. hERG currents were evoked by a three pulse protocol where voltage was first stepped to +40 mV for two seconds from a holding potential of −80 mV to inactivate hERG channels. The voltage is then stepped back to −50 mV for two seconds to evoke a tail current prior to returning to the holding potential for 1 second. The voltage protocol was applied (Pre), compounds added, incubated for 600 seconds, and the voltage protocol was applied a final time (Post) on the IonWorks Quattro. Dimethyl sulfoxide (DMSO) was used as a negative control and Cisapride was used as a positive control.

Regarding `COc1cc(N)c(Cl)cc1C(=O)NC1CCN(CCCOc2ccc(F)cc2)CC1OC` (stereo not shown) [Cisapride, reference compound], the “hERG ion channel inhibition (in words)” value is listed as “inhibited evoked currents in a dose dependent fashion”.
